Where only a bound is given, the exact number is not on record here.

In general, Papp refers to the rate of passage across a membrane or cell layer, normalised by area and donor concentration. Lower therefore signals poor permeation. In general, efflux ratio refers to the permeability from basolateral to apical divided by that in the opposite direction, in the common usage.

Series [1] in a line: gMDCK (P-gp knockout MDCK) monolayer permeability assay. As to conditions: dog, pH 7.4.
The test system of series [2] is human intestinal organoid-derived monolayer (RepliGut). Put plainly: RepliGut human jejunal organoid-derived monolayer permeability assay. As to conditions: organoid vs gMDCK.
Test in series [3]: as above
The following applies: human, pH 7.4.

As for `CC(C)CN(C[C@@H](O)[C@H](Cc1ccccc1)NC(=O)O[C@H]1CCOC1)S(=O)(=O)c1ccc(N)cc1` [Amprenavir], the Papp at 3 h in series [1] was 8.5 ×10⁻⁶ cm/s. Also, in series [2], the “apical to basolateral apparent permeability in intestinal organoids compared with gMDCK monolayers” value is recorded as “significantly lower” and the “basolateral to apical permeability in intestinal organoids compared with gMDCK cells” value is given as “similar”. For the same molecule, in series [3], the Papp at 3 h is 0.35 ×10⁻⁶ cm/s and the efflux ratio at 3 h was > 4.

Values taken from PMC12473906, “Comparing the Altis RepliGut Organoid System to MDCK Monolayers in Predicting the Oral Absorption of Lenalidomide” (Pharmaceutics, 2025).
